These results are taken from PubChem BioAssay AID1671190 (National Center for Advancing Translational Sciences (NCATS), 2021).

By UniProt entry, the sequences of proteins in these tests, tags left out.
UniProt P18054, whole entry: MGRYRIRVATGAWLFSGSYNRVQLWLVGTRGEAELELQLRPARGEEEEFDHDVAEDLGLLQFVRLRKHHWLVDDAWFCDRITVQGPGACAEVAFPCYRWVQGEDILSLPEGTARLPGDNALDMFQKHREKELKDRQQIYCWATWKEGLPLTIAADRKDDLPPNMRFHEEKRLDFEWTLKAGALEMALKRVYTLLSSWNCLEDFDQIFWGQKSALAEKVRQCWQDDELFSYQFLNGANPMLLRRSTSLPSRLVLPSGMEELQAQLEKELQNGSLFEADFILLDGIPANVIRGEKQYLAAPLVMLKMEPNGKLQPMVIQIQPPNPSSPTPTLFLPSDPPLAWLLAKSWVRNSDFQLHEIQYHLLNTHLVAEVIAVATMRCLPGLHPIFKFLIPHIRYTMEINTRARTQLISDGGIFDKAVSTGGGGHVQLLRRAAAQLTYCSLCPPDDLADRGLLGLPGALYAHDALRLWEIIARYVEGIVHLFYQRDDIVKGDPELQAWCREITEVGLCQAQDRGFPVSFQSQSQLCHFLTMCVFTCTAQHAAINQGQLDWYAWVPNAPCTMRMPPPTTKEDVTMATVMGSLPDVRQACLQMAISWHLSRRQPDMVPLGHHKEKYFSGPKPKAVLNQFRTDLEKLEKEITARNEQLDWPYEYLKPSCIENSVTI

Where “and” joins values, the source holds several entries; their conditions need not be identical. Identical values can stand only once. The list shows a part of the results, in another mix than the full data. Some of these compounds have results that are not shown, active ones among them. Results filed as inconclusive are left out. Calls of active or inactive are those of the source. Calls come from the whole dose curve; as a rule, active = well fitted inhibition curve with a large enough effect; inconclusive = small, poorly fitted or top-dose-only effect, or another doubt; inactive = no such curve, though single readings can be large or run the other way.
% is set by controls: 0 for no effect and ±100 for the full control effect.

This test addresses Polyunsaturated fatty acid lipoxygenase ALOX12 (Homo sapiens) (UniProt P18054). Description: Primary qHTS assay for inhibitors of human arachidonate 12S-lipoxygenase (ALOX12): Round 2. As to conditions: purified 12hLO, xylenol orange hydroperoxide absorbance; at 108 µM (top of the series). From the text: Assay Provider: Theodore R. Holman Ph.D. University of California, Santa Cruz, California Human lipoxygenase 12hLO is a member of the closely related lipoxygenase family of enzymes which catalyze the site-specific oxidation of arachidonic acid to various hormone precursor molecules and as such is a candidate for drug development in a variety of disease areas, such as cancer and inflammation. Inhibition of 12hLO activity was screened by utilizing arachidonic acid as a substrate. The extent of hydroperoxide product formation was measured by a secondary chromogenic reaction in which xylenol orange (XO, Sigma-Aldrich, cat. number 39,818-7) reacts with the ferric ions produced from the reaction between the hydroperoxide and ferrous ions. The Fe (III)-XO complex is characterized with red-shifted absorbance at 560 nm. A purified preparation of human 12hLO was supplied by Dr. Holman laboratory, University of California, Santa Cruz.
PROTOCOL TABLE SEQUENCE No. (e.g., 1, 2, 3, etc.); […] (e.g., Cells, Incubation, Reagent, etc.); VALUE; DESCRIPTION 1; Enzyme; 3 uL; 150 nM 12hLO enzyme solution dispensed in 1536-well Greiner black, clear bottom plates. 2; Compound; 23 nL; compounds and controls were added. 3; Incubate; 15 min; room temperature. 4; Substrate; 1 uL; 40 uM arachidonic acid (final concentration). 5; Incubate; 30 min; room temperature. 6; Reagent; 4 uL; Fe-XO solution was added to each well. 7; Incubation; 30 min; room temperature 8; Detector; absorbance; Read 1 at 405 nm absorbance using ViewLux (Perkin-Elmer) CCD imager. 9; Detector; absorbance; Read 2 at 573 nm absorbance using ViewLux (Perkin-Elmer) CCD imager. NOTES (numbers refer to sequence above) 1; 150 nM 12hLO (final concentration) in buffer solution (25 mM Hepes, 0.01% Triton X-100, pH 7.0) was dispensed in columns 1, 2, 5-48. Column 1 is neutral (100% activity). Buffer only was dispensed in columns 3 and 4 as no enzyme negative controls. The plates were covered with metal lids with gas-exchange holes. 2; Compounds were pin transferred via a Kalypsys Pin Tool (Wako USA) in column 5-48. Control compound was transferred in column 2, titration of nordihydroguaiaretic acid (NDGA, Sigma-Aldrich, N5023) with top concentration of 20 mM in DMSO then 1:3 dilution in duplicate. Dilution factor of 23 nL into 4 uL final assay volume. 3; Covered assay plates were incubated for 15 min at room temperature. 4; Substrate was added to start the reaction; 40 uM arachidonic acid (Sigma-Aldrich, St. Louis, MO) was dispensed throughout the plate. 6; Chromogenic detection reagent solution (divalent iron/xylenol orange, Fe-XO) was added to each well: 200 uM xylenol orange, 300 uM ferrous ammonium sulfate prepared freshly in 50 mM sulfuric acid. 8, 9; Two absorbance readouts were obtained at 405 nm and at 573 nm using a ViewLux high-throughput CCD plate imager (Perkin-Elmer). The 573 to 405 (Read 2 / Read 1) absorbance ratio was used to compute reaction progress.
In the case of `CN(C)C1(CNC(=O)c2ccc(Br)cc2)CCCCC1`, the activity change, negative = inhibition is inactive: 6.13%.
As to `COc1cc(C(=O)NCC2(N(C)C)CCCCC2)c([N+](=O)[O-])cc1OC`, the activity change, negative = inhibition was inactive: 13.1%.
Then `COc1ccc(Cl)cc1C(=O)NCC1(N(C)C)CCCCC1`, with inactive: 0%; and `COc1cccc(C(=O)NCC2(N3CCCCC3)CCCCC2)c1`, with inactive: 12.5%; and `COc1ccc(C(=O)NCC2(N(C)C)CCCCC2)cc1Cl`, with inactive: -20.5%.
Then `O=C(NCC1(N2CCCCC2)CCCCC1)c1cccc(Cl)c1`, with inactive: -2.29%; and `O=C(OC1CN2CCC1CC2)C(CO)(c1ccccc1)c1ccccc1` (centres undefined), with inactive: -1.54%.
The value for `C=C(C)C#CC(O)(C(=O)OC1CCN(C)CC1)c1ccccc1` (centres undefined) was inactive: 2.51%; that for `COc1ccc(Br)c(C(=O)NCC2(N3CCCCC3)CCCCC2)c1` was inactive: 17.6%; that for `COc1cc(C(=O)NCC2(N(C)C)CCCCC2)cc(OC)c1OC` was inactive: -18.9%.
For the molecule `Cc1cccc(C(=O)NCC2(N(C)C)CCCCC2)c1`, the activity change, negative = inhibition is inactive: -26.3%.
Take `O=C(OCCN1CCCC1)C(O)(c1ccccc1)c1ccccc1`: the activity change, negative = inhibition is inactive: -2.65%.
Then `CC(C)Oc1ccc(C(=O)NCC2(N(C)C)CCCCC2)cc1`, with inactive: -20.3% and inactive: 24.5%.
Then `CN(C)c1cccc(C(=O)NCC2(N(C)C)CCCCC2)c1`, with inactive: 51.6%; and `O=C(NCC1(N2CCCCC2)CCCCC1)c1cc([N+](=O)[O-])ccc1Cl`, with inactive: 2.53%.
Then `CN1[C@@H]2CC[C@H]1CC(OC(=O)C(O)(c1ccccc1)c1ccccc1)C2` (some centres undefined), with inactive: 0%.
`COc1cc(SC)ccc1C(=O)NCC1(N(C)C)CCCCC1`: the activity change, negative = inhibition was inactive: 0%.
The value for `CN(C)C1(CNC(=O)c2cccc(Cl)c2)CCCCC1` was inactive: 0%; that for `CCN(CC)CC(C)C(C)OC(=O)C(O)(c1ccccc1)c1ccccc1` (centres undefined) was inactive: -2.78%; that for `CC(C)N1C(=O)CC2(CCN(CCOC(=O)C(O)(c3ccccc3)c3ccccc3)CC2)C1=O` was inactive: 0%.
The value for `Cc1ccc(C(=O)NCC2(N3CCCCC3)CCCCC2)cc1` was inactive: -18.6%.
Then `CN(C)C1(CNC(=O)c2ccccc2F)CCCCC1`, with inactive: -19.5%.
With `CN(C)c1ccc(C(=O)NCC2(N(C)C)CCCCC2)cc1`, the activity change, negative = inhibition was inactive: -2.29%.
As for `Cc1ccccc1C(=O)NCC1(N2CCCCC2)CCCCC1`, the activity change, negative = inhibition is inactive: -13.6%.
The value for `CN(C)C1(CNC(=O)c2ccccc2[N+](=O)[O-])CCCCC1` was inactive: -18%.
With `CCCCOc1ccccc1C(=O)NCC1(N(C)C)CCCCC1`, the activity change, negative = inhibition is inactive: -23.5%.
Then `CN(C)CCOC(=O)C(O)(c1ccccc1)C1CCCCC1` (centres undefined), with inactive: 0.776%.
The value for `O=C(NCC1(N2CCCCC2)CCCCC1)c1cc(F)c(F)cc1Cl` was inactive: -20.5%.
Then `C=CCN1CCN(CCOC(=O)C(O)(c2ccccc2)c2ccccc2)CC1`, with inactive: -3.44%; and `CN(C)C1(CNC(=O)c2cccs2)CCCCC1`, with inactive: -55.6%.
For the molecule `CCOc1cccc(C(=O)NCC2(N(C)C)CCCCC2)c1`, the activity change, negative = inhibition is inactive: -22.5%.
Then `COc1ccc(C(=O)NCC2(N(C)C)CCCCC2)cc1`, with inactive: -3.31%.
Then `O=C(NCC1(N2CCCCC2)CCCCC1)c1cccc(Br)c1`, with inactive: -10.9%; and `O=C(NCC1(N2CCOCC2)CCCCC1)c1cc(=O)c2ccccc2o1`, with inactive: -6.63%.
